US20250353857A1, “COMPOUND ACTIVE AS INHIBITOR OF COLONY STIMULATION FACTOR-1 RECEPTOR (CSF-1 R)” (priority 2022, published 2025)

Test system: P-MAPK (ERK1/2) in CSF-1 stimulated bone-marrow derived macrophages
Assay: Effect of CSF1R inhibitors on MAPK signaling in mouse bone-marrow derived macrophages
Format: cell-based
Settings: fold change relative to PLX3397 (IC50 inhibitor/IC50 PLX3397), P-MAPK/total MAPK, 10 ng/mL CSF-1

[2H]C([2H])([2H])N(Cc1ccccc1)c1ncnc2[nH]c(-c3ccc(CO)cc3)cc12 [TIA05-046, (4-(4-(Benzyl(methyl-d3)amino)-7H-pyrrolo[2,3-d]pyrimidin-6-yl)phenyl)methanol]
MAPK (fold): 0.6 fold

CN(Cc1ccccc1)c1ncnc2[nH]c(-c3ccc(CO)cc3)cc12 [KUL01-123, (4-(4-(Benzyl(methyl)amino)-7H-pyrrolo[2,3-d]pyrimidin-6-yl)phenyl)methanol]
MAPK (fold): 1.0 fold
